The target in the assay is DOT1L(1-416) (Homo sapiens, UniProt Q8TEK3). Briefly: Determination of IC50: DOT1L(1-416) methyltransferase assay, 3H-SAM, oligonucleosome substrate, Flashplate. Type of assay: biochemical. How it is done:
Determination of IC50. Test compounds were serially diluted 3 fold in DMSO for 10 points and 1 μl was plated in a 384 well microtiter plate. […] 10 μl per well of substrate mix (same assay buffer with 200 nM S-[methyl-^3H]-adenosyl-L methionine, 600 nM of unlabeled […], and 20 nM oligonueleosome) was added to initiate the reaction. Reaction was incubated for 120 minutes at room temperature and quenched with 10 μl per well of 100 μM S-methyl-adenosyl-L methionine. For detection, substrate from 50 μl of reaction was immobilized on a 384 well Streptavidin coated Flashplate (Perkin Elmer) (also coated with 0.2% polyethyleneimine) and read on a Top Count scintillation counter (Perkin Elmer).

Protein sequences, listed by entry. Tags and fused reporters are not part of them. Residues count along the entry.
UniProt Q8TEK3, 1-416: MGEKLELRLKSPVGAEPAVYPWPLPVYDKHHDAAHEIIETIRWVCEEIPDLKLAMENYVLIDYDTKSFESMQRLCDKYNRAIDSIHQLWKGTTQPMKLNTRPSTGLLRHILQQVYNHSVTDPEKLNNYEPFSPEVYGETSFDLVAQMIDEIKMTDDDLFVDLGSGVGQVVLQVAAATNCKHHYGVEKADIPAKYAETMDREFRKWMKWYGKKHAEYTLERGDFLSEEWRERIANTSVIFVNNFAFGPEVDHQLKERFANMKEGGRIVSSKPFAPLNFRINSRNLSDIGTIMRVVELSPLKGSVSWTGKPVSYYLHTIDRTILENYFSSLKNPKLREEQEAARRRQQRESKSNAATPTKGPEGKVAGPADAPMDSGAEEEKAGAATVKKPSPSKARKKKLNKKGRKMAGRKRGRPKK

Structures are written as SMILES. Read-outs that look alike come from different tables or passages of the source. Bounds are passed on as bounds.

On to `CN(C[C@H]1C[C@@H](n2ccc3c(N)ncnc32)[C@H](O)[C@@H]1O)C1CC(CCc2nc3cc(C(C)(C)C)ccc3[nH]2)C1` (stereo partly drawn) [Compound 14, (1R,2S,3R,5R)-3-(4-amino-7H-pyrrolo[2,3-d]pyrimidin-7-yl)-5-(((3-(2-(5-(tert-butyl)-1H-benzo[d]imidazol-2-yl)ethyl)cyclobutyl)(methyl)amino)methyl)cyclopentane-1,2-diol], for which, under “class symbols”, the IC50 (in general, the concentration needed to halve the response being measured) is less than 100 nM. Consider `CN(C[C@H]1C[C@@H](n2ccc3c(N)ncnc32)[C@H](O)[C@@H]1O)[C@H]1C[C@@H](CCc2nc3cc(C(C)(C)C)ccc3[nH]2)C1` [Compound 69, (1R,2S,3R,5R)-3-(4-amino-7H-pyrrolo[2,3-d]pyrimidin-7-yl)-5-((((1r,3S)-3-(2-(5-(tert-butyl)-1H-benzo[d]imidazol-2-yl)ethyl)cyclobutyl)(methyl)amino)methyl)cyclopentane-1,2-diol], for which the IC50 stood at 2.51 nM. The same compound showed an IC50 (class symbols) of less than 100 nM.

`CN(C[C@H]1C[C@@H](n2ccc3c(N)ncnc32)[C@H](O)[C@@H]1O)[C@H]1C[C@@H](CCc2nc3cc(C(C)(C)C)ccc3[nH]2)C1` (single isomer, unassigned) [Compound 32] registered a half-inhibitory concentration (IC50) (class symbols) of less than 100 nM. Take `CN(C[C@H]1C[C@@H](n2ccc3c(N)ncnc32)[C@H](O)[C@@H]1O)[C@H]1C[C@H](CCc2nc3cc(C(C)(C)C)ccc3[nH]2)C1` (single isomer, unassigned) [Compound 35]: for the setting “class symbols”, the half-maximal inhibitory concentration (IC50) was less than 100 nM. `CN(C[C@H]1C[C@@H](n2ccc3c(N)ncnc32)[C@H](O)[C@@H]1O)[C@H]1C[C@H](CCc2nc3cc(C(C)(C)C)ccc3[nH]2)C1` [Compound 70, (1R,2S,3R,5R)-3-(4-amino-7H-pyrrolo[2,3-d]pyrimidin-7-yl)-5-((((1s,3R)-3-(2-(5-(tert-butyl)-1H-benzo[d]imidazol-2-yl)ethyl)cyclobutyl)(methyl)amino)methyl)cyclopentane-1,2-diol] came in with an IC50 (class symbols) of less than 100 nM.

These data come from patent US8580762B2, “Substituted purine and 7-deazapurine compounds” (Epizyme, Inc., priority 2010, dated 2013).
